These results are taken from ChEMBL document CHEMBL5236632, “Membrane-Active Nonivamide Derivatives as Effective Broad-Spectrum Antimicrobials: Rational Design, Synthesis, and Biological Evaluation” (J Med Chem, 2022).

What is called MIC is the lowest concentration that inhibits growth of the organism. As a reminder, the HC50 is the concentration that lyses half of the red blood cells.

In brackets after ≈: the same amount, converted by molar mass.

Series [1] deals with Staphylococcus aureus. Briefly: Antibacterial activity against methicillin-resistant Staphylococcus aureus NCTC 10442 assessed as inhibition of visible growth measured after 18 to 24 hrs by broth dilution method. Particulars: time 18-24 hrs. The class given is functional. (Broth dilution looks for growth in wells or tubes with falling amounts of substance.)
Series [2] has as its system Pseudomonas aeruginosa. Briefly: Antibacterial activity against Pseudomonas aeruginosa ATCC 9027 assessed as inhibition of visible growth measured after 18 to 24 hrs by broth dilution method. In kind it is functional. Particulars: time 18-24 hrs.
The subject of series [3] is Staphylococcus aureus. Briefly: Antibacterial activity against Staphylococcus aureus ATCC 29213 assessed as inhibition of visible growth measured after 18 to 24 hrs by broth dilution method. The class given is functional. The note with it: time 18-24 hrs.
Series [4] in a line: Haemolytic activity in rabbit red blood cells incubated for 60 mins by k multi-mode reader relative to control. The class given is toxicity, cell-based, Oryctolagus cuniculus, Erythrocyte.
Series [5] has as its system Escherichia coli. Description: Antibacterial activity against Escherichia coli ATCC 25922 assessed as inhibition of visible growth measured after 18 to 24 hrs by broth dilution method. In kind it is functional. The note with it: time 18-24 hrs.
Series [6] deals with Staphylococcus aureus. Description: Antibacterial activity against methicillin-resistant Staphylococcus aureus N315 assessed as inhibition of visible growth measured after 18 to 24 hrs by broth dilution method. In kind it is functional. The note with it: time 18-24 hrs.

In the case of `CC[C@H](C)[C@H](NC(=O)CN)C(=O)NCC(=O)N[C@@H](C)C(=O)N[C@H](C(=O)N[C@@H](CC(C)C)C(=O)N[C@@H](CCCCN)C(=O)N[C@H](C(=O)N[C@@H](CC(C)C)C(=O)N[C@H](C(=O)N[C@H](C(=O)NCC(=O)N[C@@H](CC(C)C)C(=O)N1CCC[C@H]1C(=O)N[C@@H](C)C(=O)N[C@@H](CC(C)C)C(=O)N[C@H](C(=O)N[C@@H](CO)C(=O)N[C@@H](Cc1c[nH]c2ccccc12)C(=O)N[C@H](C(=O)N[C@@H](CCCCN)C(=O)N[C@@H](CCCNC(=N)N)C(=O)N[C@@H](CCCCN)C(=O)N[C@@H](CCCNC(=N)N)C(=O)N[C@@H](CCC(N)=O)C(=O)N[C@@H](CCC(N)=O)C(N)=O)[C@@H](C)CC)[C@@H](C)CC)[C@@H](C)O)[C@@H](C)O)C(C)C)C(C)C` [MELITTIN], the MIC in series [1] is 3.12 µg/mL (≈ 1.1 µM); in series [2] it was 6.25 µg/mL (≈ 2.2 µM); in series [3], 3.12 µg/mL (≈ 1.1 µM); in series [5], 3.12 µg/mL (≈ 1.1 µM); in series [6], 1.56 µg/mL (≈ 0.548 µM). The same compound had an HC50 at 1 h in series [4] of 19.1 µg/mL.
